ChEMBL document CHEMBL4392822, “HSP60/10 chaperonin systems are inhibited by a variety of approved drugs, natural products, and known bioactive molecules” (Bioorg Med Chem Lett, 2019)
pIC50: −log10 of the molar value.

Molecular target: T1, Thiosulfate sulfurtransferase (Homo sapiens, UniProt Q16762)
T1 sequence (Q16762 whole entry): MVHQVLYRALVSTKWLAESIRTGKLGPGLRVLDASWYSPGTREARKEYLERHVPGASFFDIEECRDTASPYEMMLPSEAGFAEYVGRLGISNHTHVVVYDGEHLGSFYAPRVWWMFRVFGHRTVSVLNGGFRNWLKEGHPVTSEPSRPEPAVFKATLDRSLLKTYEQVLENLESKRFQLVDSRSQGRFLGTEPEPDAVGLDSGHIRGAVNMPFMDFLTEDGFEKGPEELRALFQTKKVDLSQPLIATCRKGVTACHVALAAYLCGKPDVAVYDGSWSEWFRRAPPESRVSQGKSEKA
Format: ADME
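Further: native rhodanese of unspecified species, enzyme activity read after 45 min by spectrophotometric detection of Fe(SCN)3 colour, IC50 reflects activity reduction.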

Q: `C=C1CC[C@H](O)C/C1=C/C=C1\CCC[C@]2(C)[C@@H]([C@H](C)/C=C/[C@H](C)C(C)C)CC[C@@H]12` [ERGOCALCIFEROL] was tested. Which pIC50 did it give?
A: 4.03
